The values below are quoted from earlier work in article PMC5812989, “Evaluation of HER2-specific peptide ligand for its employment as radiolabeled imaging probe” (Scientific Reports, 2018).

The conditions of the data set: 24 h after injection; murine models; cited from earlier work.

As for “^111In-labeled trastuzumab Fab fragments: 111In-labeled Fab fragments of the anti-HER2 antibody trastuzumab”, the renal uptake is 53.0 ± 15.94 %ID/g.
